# From PubChem BioAssay AID2805 (Sanford-Burnham Center for Chemical Genomics, 2010)
# The list shows a part of the results, in another mix than the full data. Activity calls are given as the source filed them.
# Tested on: intestinal alkaline phosphatase [Mus musculus]
# Experiment: mouse intestinal phosphatase enzyme activation – biochemical, luminescence, uHTS, primary screen (AID 2805)
# Settings: muIAP, CDP-Star luminescence, 30 min; at 10 µM; stronger effect = higher value; 1 = vehicle-only enzyme signal, 0 = enzyme-free wells
# In short: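 Assay system: mouse IAP enzyme / Compound: DMSO-dissolved test compounds / Timing: 30 min, room temperature / Measured by: luminescence from enzymatic CDP-Star hydrolysis / Control set: DMSO-only wells, enzyme-free buffer wells as negative control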
row,SMILES,activation factor
1,O=[N+]([O-])c1cc([N+](=O)[O-])c(NCC2CCS(=O)(=O)C2)c([N+](=O)[O-])c1 (stereo unspecified),inactive: 0.888
2,COc1ccc(OP(C)(=O)Nc2cccc(Br)c2)cc1 (stereo unspecified),inactive: 0.961
3,COc1ccc(NP(C)(=O)Oc2ccccc2OC)cc1 (stereo unspecified),inactive: 0.911
4,CN(C)CCOC(=O)C(O)(c1ccccc1)C1CCCCC1 (stereo unspecified),inactive: 1.14
5,Nc1ccc2c(ccc3cccnc32)n1.O=[N+]([O-])c1cc([N+](=O)[O-])c(O)c([N+](=O)[O-])c1,inactive: 0.94
6,CP(=O)(OC12CC3CC(CC(C3)C1)C2)OC12CC3CC(CC(C3)C1)C2,inactive: 0.824
7,CCOC(=O)c1ccc(NP(C)(=O)Oc2ccc(Cl)cc2)cc1 (stereo unspecified),inactive: 1.07
8,CP(=O)(Nc1ccc(Cl)cc1)Oc1ccc(F)cc1 (stereo unspecified),inactive: 1.03
9,COc1ccccc1OP(C)(=O)Nc1ccccc1Br (stereo unspecified),inactive: 0.961
10,CC(C)(C)c1ccc(OP(C)(=O)O)cc1,inactive: 0.995
11,CN(C)C(=O)c1c([N+](=O)[O-])cc([N+](=O)[O-])cc1[N+](=O)[O-],inactive: 0.956
12,COc1ccc(OP(C)(=O)Nc2ccc(Br)cc2)cc1 (stereo unspecified),inactive: 1.09
13,CCN(CC)CC(O)COC(=O)C(O)(c1ccccc1)C1CCCCC1 (stereo unspecified),inactive: 1.01
14,CCc1ccc(OP(C)(=O)Nc2cccnc2)cc1 (stereo unspecified),inactive: 1.07
15,CP(=O)(Oc1ccccc1)N1CCOC1=O (stereo unspecified),inactive: 0.915
16,O=C(OCCCN1CCCC1)C(O)(c1ccccc1)C1CCCCC1 (stereo unspecified),inactive: 0.901

row,SMILES,activation factor
1,COc1ccccc1OP(C)(=O)Nc1c(C)n(C)n(-c2ccccc2)c1=O (stereo unspecified),inactive: 0.919
2,Cc1c(NP(C)(=O)Oc2ccc(C(C)C)cc2)c(=O)n(-c2ccccc2)n1C (stereo unspecified),inactive: 0.978
3,O=[N+]([O-])c1cc([N+](=O)[O-])c(Nc2ccccn2)c([N+](=O)[O-])c1,inactive: 0.721
4,CCc1ccc(OP(C)(=O)O)cc1,inactive: 0.986
5,COc1ccccc1OP(C)(=O)Nc1ccc(C)cc1C (stereo unspecified),inactive: 1.03
6,CP(=O)(Nc1ccccn1)Oc1ccccc1 (stereo unspecified),inactive: 0.944
7,COc1ccccc1OP(C)(=O)Nc1ccc(Br)cc1 (stereo unspecified),inactive: 1
8,CN(C)CCOC(=O)C(O)(c1ccccc1)C1CCCC1 (stereo unspecified),inactive: 0.963
9,COc1ccc(OP(C)(=O)Nc2ccccn2)cc1 (stereo unspecified),inactive: 1
10,Cc1nc2ccc3ccccc3c2o1.O=[N+]([O-])c1cc([N+](=O)[O-])c(O)c([N+](=O)[O-])c1,inactive: 0.948
11,CP(=O)(Nc1ccc(Cl)cc1Cl)Oc1ccccc1 (stereo unspecified),inactive: 1.19
12,CP(=O)(OCCOc1ccccc1)OCCOc1ccccc1,inactive: 1.12
13,Cc1cc(C)cc(OP(C)(=O)Nc2cccc(C(F)(F)F)c2)c1 (stereo unspecified),inactive: 0.998
14,COc1ccc(OP(C)(=O)Nc2ccccc2Br)cc1 (stereo unspecified),inactive: 1.08
15,COc1ccccc1OP(C)(=O)Nc1ccc(C)c(C)c1 (stereo unspecified),inactive: 1.01
